Test system: sciatic nerve microtubules
Assay: Densitometric analysis of free tubulin and microtubule abundance in sciatic nerve
Details: tumor-bearing mice (FIG. 6B)

CC(=O)O[C@H]1C(=O)[C@@]2(C)[C@H]([C@H](OC(=O)c3ccccc3)[C@]3(O)C[C@H](OC(=O)[C@H](O)[C@@H](NC(=O)c4ccccc4)c4ccccc4)C(C)=C1C3(C)C)[C@]1(OC(C)=O)CO[C@@H]1C[C@@H]2O [paclitaxel]
amount of microtubule polymers (sciatic nerve, densitometry): dose-dependent increase in the amount of microtubule polymers
